Here are results for 2 substances from PMC4109617, “The functionalized amino acid (S)-Lacosamide subverts CRMP2-mediated tubulin polymerization to prevent constitutive and activity-dependent increase in neurite outgrowth” (Frontiers in Cellular Neuroscience, 2014).

The term EC50 denotes the concentration that produces a half-maximal response.

The target in assay [1] is tubulin (Cytoskeleton Inc.) (UniProt P02550). The experiment in a line: ELISA; tubulin-coated 96-well plates; lysates from cortical cells treated with vehicle, KCl (25 mM, 96 h), (S)-LCM, or KCl + (S)-LCM added, 2 h at room temperature with shaking; bound CRMP2 detected with CRMP2 antibody; OD normalised to protein amount and to the control group (100%). Background: In an ELISA, binding on a coated surface is turned into a signal by an enzyme label.

The target is the same in assay [2]. The experiment in a line: ELISA; 96-well plates coated with tubulin (200 ng/well), blocked with 3% BSA; escalating concentrations of recombinant CRMP2, 2 h at room temperature with shaking; bound CRMP2 detected with CRMP2 antibody, OD450; non-linear regression. In a second panel 1 uM CRMP2 with none or escalating (S)-LCM (up to 1 mM): binding not impacted.

Turning to “endogenous CRMP2 from lysates of rat primary cortical neurons (from UniProt P47942 1-572) (natural protein)”, in assay [1], the CRMP2 bound to tubulin, % of control lysate, KCl + (S)-LCM is 144 % of control; the CRMP2 bound to tubulin, % of control lysate, KCl alone was 134 % of control; the increase of CRMP2 bound to tubulin after KCl exposure (96 h), against control lysate is 43.5%.

For the substance “recombinant CRMP2 (collapsin response mediator protein 2), wild-type CRMP2-GST (from UniProt P47942 1-572) (natural protein)”, in assay [2], the EC50 is 607 nM.
